For this assay, the target named is T1, σ2 receptor (Rattus norvegicus, UniProt Q5U3Y7).
T1 sequence (Q5U3Y7 1-176): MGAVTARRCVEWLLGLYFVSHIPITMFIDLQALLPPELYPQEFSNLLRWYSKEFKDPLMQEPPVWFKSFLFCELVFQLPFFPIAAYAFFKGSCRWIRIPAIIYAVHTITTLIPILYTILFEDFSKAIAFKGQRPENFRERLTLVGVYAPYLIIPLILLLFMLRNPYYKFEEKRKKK
The assay can be described thus: σ2 receptor binding assay, [3H]-DTG, liver membrane homogenates.

Consider `O=C(NCCCCN1CCN(c2ccccc2OCCF)CC1)c1ccc(-c2ccsc2)cc1` [Compound 20e, 4-(Thiophen-3-yl)-N-(4-(4-(2-(2-fluoroethoxy)phenyl)piperazin-1-yl)butyl)benzamide], for which the affinity corresponds to a Ki of 5.96 µM.

The values are drawn from PMC3066655 (Journal of medicinal chemistry, 2011).
